From ChEMBL document CHEMBL4819154, “Discovery of quinuclidine modulators of cellular progranulin” (Bioorg Med Chem Lett, 2021)

Assay: Increase of PGRN level in mouse microglial BV-2 cell relative to control
Assay type: functional

With `O=C(OC1CN2CCC1CC2)C(=O)N1CCc2ccccc2[C@@H]1c1ccc(F)cc1` (stereo partly specified) the EC50 was over 10 µM.
